This is an account of results in patent US6392119.

The experiment has as its target reconstituted barnase (bn3 + bn5 expressed in the same cell) (Bacillus amyloliquifaciens). In words: cell-based or functional assay. The settings on record: scale: (measured cpm minus background) × .001 per tobacco leaf disk.

On to barstar (from UniProt P11540 1-90), for which the Luciferase activity, bn3 + bn5 + barstar, average was determined as 540; the Luciferase activity, bn3 + bn5 + barstar, shot 1 came to 89; the Luciferase activity, bn3 + bn5 + barstar, shot 2 was determined as 133; the Luciferase activity, bn3 + bn5 + barstar, shot 3 is 143. Further, the Luciferase activity, bn3 + bn5 + barstar, shot 4 is 100; the Luciferase activity, bn3 + bn5 + barstar, shot 5 turned out to be 165; the Luciferase activity, bn3 + bn5 + barstar, shot 6 stood at 959; the Luciferase activity, bn3 + bn5 + barstar, shot 7 was 1260. Besides, the Luciferase activity, bn3 + bn5 + barstar, shot 8 was 1360; the Luciferase activity, bn3 + bn5 + barstar, shot 9 stood at 977; the Luciferase activity, bn3 + bn5 + barstar, shot 10 came out at 219.
